From ChEMBL document CHEMBL1800071, “Switching reversibility to irreversibility in glycogen synthase kinase 3 inhibitors: clues for specific design of new compounds” (J Med Chem, 2011) come the findings set out here.

By UniProt entry, the sequences of proteins in these tests, tags left out. Where a name states a change or a piece, a line headed by the entry shows the natural chain unless it says otherwise.
UniProt P49841: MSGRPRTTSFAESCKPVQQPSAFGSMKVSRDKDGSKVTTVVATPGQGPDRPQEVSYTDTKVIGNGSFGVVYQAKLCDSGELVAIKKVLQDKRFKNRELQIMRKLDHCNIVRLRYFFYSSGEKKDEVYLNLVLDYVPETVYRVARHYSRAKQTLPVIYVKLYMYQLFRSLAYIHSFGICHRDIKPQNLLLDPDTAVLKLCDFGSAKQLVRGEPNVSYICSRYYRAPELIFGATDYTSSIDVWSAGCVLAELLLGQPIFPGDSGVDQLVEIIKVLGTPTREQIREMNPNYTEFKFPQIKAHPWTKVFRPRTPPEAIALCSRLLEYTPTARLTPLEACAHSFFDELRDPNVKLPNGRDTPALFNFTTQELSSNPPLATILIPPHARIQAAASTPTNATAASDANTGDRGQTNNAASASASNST

The target in the assay is Glycogen synthase kinase-3 beta (Homo sapiens, UniProt P49841).
The IC50 is the concentration needed to halve the response being measured. Higher therefore signals a need for much substance. Consider `O=C(CI)c1ccc(Br)cc1`, for which the concentration for half-maximal inhibition (IC50) amounted to 3000 nM. In other words, the single-digit micromolar range.

Regarding `N#Cc1cccc(C(=O)CBr)c1`, inhibition was half-maximal at 1000 nM (IC50). This IC50 is about 3-fold lower than that of the molecule before.

In turn, `N#Cc1ccc(C(=O)CBr)cc1` yielded a 50% inhibitory concentration (IC50) of 1500 nM.
